# Laboratory results: BindingDB's records for doi:10.1021/bi401043w (Mayo Clinic, 2013)
# Chains of the proteins cited; added tags and fusions are not shown. Lines headed by an entry give the natural chain unless they say otherwise; changes in a name come on top.
# UniProt P22303: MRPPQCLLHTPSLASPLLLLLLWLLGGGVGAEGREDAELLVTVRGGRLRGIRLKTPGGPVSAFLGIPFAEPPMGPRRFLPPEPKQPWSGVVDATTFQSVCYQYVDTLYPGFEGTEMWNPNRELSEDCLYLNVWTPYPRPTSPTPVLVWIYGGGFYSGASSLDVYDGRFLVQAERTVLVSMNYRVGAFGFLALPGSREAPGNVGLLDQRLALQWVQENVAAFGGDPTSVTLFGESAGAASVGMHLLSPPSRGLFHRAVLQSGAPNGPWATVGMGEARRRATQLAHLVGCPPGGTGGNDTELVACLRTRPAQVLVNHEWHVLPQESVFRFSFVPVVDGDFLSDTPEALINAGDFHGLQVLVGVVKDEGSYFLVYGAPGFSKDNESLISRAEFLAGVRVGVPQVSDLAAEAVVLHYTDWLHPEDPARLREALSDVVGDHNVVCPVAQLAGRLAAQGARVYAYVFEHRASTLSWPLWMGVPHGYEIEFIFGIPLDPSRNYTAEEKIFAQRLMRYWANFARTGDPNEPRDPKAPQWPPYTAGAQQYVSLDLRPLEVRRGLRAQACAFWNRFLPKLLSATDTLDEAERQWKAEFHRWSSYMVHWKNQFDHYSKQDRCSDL
# Target: Acetylcholinesterase (Homo sapiens, UniProt P22303)
# Experiment: Assay of Substrate Hydrolysis
# Conditions: pH 7; 25 °C
smiles,measurement,value
"CC[N+](C)(CC)CCCn1c2cc(=N)ccc-2c2ccc(N)cc2c1-c1ccccc1 [Propidium Iodide, 2]",Ki,660 nM
